Results from patent publication US5858736A, “Preparation of lactams from aliphatic α,ω-dinitriles” (priority 1996, dated 1999).

Columns and labels:
[1] = in water; cited from earlier work
A. facilis 72W = assay: Reduction in viable cells on exposure to mutagenic agent; conditions: 100 μg/mL, approximately 30 minutes

Row | Compound | pKa (ammonium ion) [1] | reduction in viable cells in the culture (A. facilis 72W) [%]
1 | ammonium ion | 9.25 | –
2 | CN(N=O)C(=N)N[N+](=O)[O-] | – | 99.9
